In the data set the test system is solid tumor HT-29 (human, colon adenocarcinoma). As to the kind of experiment: Colorectal Xenograft (In vivo HT-29). On the set-up: species or system human tumor in nu/nu mice. The following applies: total active dose 62.5 mg/kg, i.p. As to the method:
In this Example, the in vivo activity of some of the compounds prepared in accordance with the present invention was assessed using the Murine Leukemia Model and the Colorectal Xenograft model.
Female nu/nu mice (Harlan Sprague Dawley, Madison, Wis.), 18-24 g and 10-14 weeks old, at onset of treatment were used. The solid tumor HT-29 (human, colon adenocarcinoma) was obtained from the ATCC (HTB 38) and grown in DMEM supplemented with 10% FBS. Cells were subcultured once a week and for in vivo experiments viabilities were ≥90%. Mice were housed in microisolator filtration racks, and maintained with filtered acidified water and sterile laboratory chow ad libitum. Following one week of acclimation, tumors were established by injecting 1×10^6 harvested HT-29 tumor cells in a single subcutaneous site, on the flank of mice in the left axillary region. The tumor injection site was observed twice weekly and measured once palpable. The tumor volume for each mouse was determined by measuring two dimensions with calipers and calculated using the formula: tumor volume=(length×width^2)/2. When tumors reached the average volume of 300 mm^3, the mice were divided into their experimental groups. The non-Control groups received Camptothecin 2.5 mg/kg/day, the prodrugs being dosed on the basis of camptothecin content. The mice were sorted to evenly distribute tumor size, grouped into 5 mice/cage, and ear punched for permanent identification. Mice receiving drugs were treated i.p. 5 times a week, Monday through Friday for 5 weeks with 500 μL of test article. Mouse weight and tumor size were measured at the beginning of study and weekly through week 7. The overall growth of tumors was expressed as the percent change in tumor size calculated by subtracting mean initial tumor volume from mean tumor volume at the end of the treatment and dividing by mean initial tumor volume.

Consider “Camptothecin-20-O-Glycinate PEG40kDa -Amide Derivative [Compound 48]”, for which the “Body weight change (%)” value (week 5 (end of treatment)) is recorded as -9% and the “Body weight change (%)” value (week 7 (2 week post treatment)) is “+25%”. Besides, the “Mortality (%)” value (week 5 (end of treatment), 50400 min) is 0%.

The values above are taken from US6127355A (priority 1999, dated 2000).
